Measurements as given in US11072634B2, “Inhibitors of transglutaminases” (Zedira GmbH, priority 2016, dated 2021).

Protein sequences, listed by entry. Tags and fused reporters are not part of them.
UniProt P21980, whole entry: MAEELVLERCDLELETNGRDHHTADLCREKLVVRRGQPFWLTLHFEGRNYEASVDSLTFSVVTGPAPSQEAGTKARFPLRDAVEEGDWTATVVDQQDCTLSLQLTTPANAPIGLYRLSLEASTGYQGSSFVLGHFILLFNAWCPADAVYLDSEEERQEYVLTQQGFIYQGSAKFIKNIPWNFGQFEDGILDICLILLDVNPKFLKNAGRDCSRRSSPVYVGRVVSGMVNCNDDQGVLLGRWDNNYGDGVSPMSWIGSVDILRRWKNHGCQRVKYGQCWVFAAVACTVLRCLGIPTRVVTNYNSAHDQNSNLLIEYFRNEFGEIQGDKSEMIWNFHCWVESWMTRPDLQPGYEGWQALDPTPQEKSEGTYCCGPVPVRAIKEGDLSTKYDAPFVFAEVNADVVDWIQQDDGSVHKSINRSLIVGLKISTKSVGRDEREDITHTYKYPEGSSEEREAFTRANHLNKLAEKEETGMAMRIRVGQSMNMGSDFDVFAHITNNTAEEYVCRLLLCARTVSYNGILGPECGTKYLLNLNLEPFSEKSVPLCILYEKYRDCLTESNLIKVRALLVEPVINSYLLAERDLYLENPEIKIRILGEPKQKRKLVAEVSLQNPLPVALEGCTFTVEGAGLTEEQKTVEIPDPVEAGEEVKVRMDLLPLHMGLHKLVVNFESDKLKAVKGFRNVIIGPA

What was measured:
[1] = target: recombinant human tissue transglutaminase (rhTG2) (Homo sapiens, UniProt P21980); test: Inhibition of rec. human tissue transglutaminase (fluorescence, Abz-APE(CAD-DNP)QEA-OH); conditions: read-out: IC50 TG2; Table 2, TG2 inhibitors
Experimental: Method for Inhibition Studies of Rec. Human Tissue Transglutaminase (rhTG2)
250 μg lyophilized His-tagged recombinant human tissue transglutaminase (His6-rhTG2, Zedira product 1022) is reconstituted in H2O (volume depends on original volume before lyophilization) resulting in a buffer containing 10 mM Tris-HCl, 150 mM NaCl, 1 mM EDTA, 5 mM DTT, 189 mg/ml maltodextrin, pH=8.1. The rhTG2 stock solution is diluted in buffer (50 mM Tris-HCl, 7.5 mM CaCl2, 150 mM NaCl, pH=7.4) to give a working solution of 100 U/ml (based on the amine-incorporation activity measured using T036, described below).
A 10 mM inhibitor stock solution is prepared in DMSO, and from this stock solution a serial 1:2-fold dilution series is prepared, also in DMSO. Each of these initial dilutions is subsequently diluted 1:50-fold with buffer (50 mM Tris-HCl, 7.5 mM CaCl2, 150 mM NaCl, pH=7.4) to yield the final working dilutions containing 2% (v/v) DMSO. […]
600 μl of His6-rhTG2 working solution are added to 11.4 ml assay buffer (50 mM Iris-HCl, 7.5 mM CaCl2, 150 mM NaCl, 5 mM DTI, 13.4 mM glycine methylester, 50 μM Abz-APE(CAD-DNP)QEA-OH, (Zedira product A102; patent No.: EP 1781807B1), pH=7.4). […] Increase in fluorescence is measured using λex=313 nm and λem=418 nm at 37° C. for 20 min. […]
Analysis of enzymatic activity is performed by calculation of the slope of an increase in fluorescence intensity. […]

[2] = test system: CaCo2 (human colon carcinoma cell line); test: Cell Proliferation ELISA, BrdU; conditions: highest concentration 1 mM
Experimental: (§1) The following cell lines are used for determination of cytotoxicity: • CaCo2 (human colon carcinoma cell line) • Huh7 (human liver carcinoma cell line).
(§2) Cells are cultivated in DMEM/10% FCS at 37° C. and 5% CO2 in a 96 well plate with an initial seeding density of 2×10^4 cells/well.
(§3) Transglutaminase inhibitors are added to the cells with final concentrations from 0.1 μM to 1 mM one hour after seeding. The different inhibitor dilutions are prepared in DMSO, resulting in a final concentration of 1% (v/v) DMSO in every well (2 μl inhibitor in 200 μl cell culture medium). Cycloheximide (2.5 μg/ml) and Camptothecin (0.2 μg/ml) are used as control compounds. All measurements are performed in triplicates.
(§4) Determination of proliferation using Cell Proliferation ELISA, BrdU (Roche, Cat. No. 11647229001).
(§5) After 24 h of incubation with inhibitors or controls, BrdU is added to the cells. After further incubation for 18 h, the cells are fixed and cellular DNA becomes denatured. A monoclonal antibody (conjugated with peroxidase) raised against BrdU is added to the wells and binds to BrdU which is incorporated into the DNA. Substrate solution is added and absorbance at 450 nm is recorded. Further analysis is performed according to the manufacturer's protocol.

[3] = test system: Huh7 (human liver carcinoma cell line); test: Cell Proliferation ELISA, BrdU; conditions: highest concentration 1 mM
Experimental: as §1, §2, §3, §4, §5

[4] = test system: CaCo2 (human colon carcinoma cell line); test: Metabolic activity, EZ4U-Assay; conditions: highest concentration 1 mM
Experimental: as §1, §2, §3
(§6) Determination of metabolic activity using EZ4U-Assay (Biomedica, Cat. No. BI-5000).
(§7) After 48 h of incubation with inhibitors or controls, the tetrazolium substrate is added to the cells. Substrate turnover by the cells is measured over two hours at 450 nm (using 630 nm was reference wavelength).

[5] = test system: Huh7 (human liver carcinoma cell line); test: Metabolic activity, EZ4U-Assay; conditions: highest concentration 1 mM
Experimental: as §1, §2, §3, §6, §7

[6] = test system: mouse neuroblastoma cell line N1E-115; test: Neurite outgrowth assay
Experimental: The irreversible-reversible inhibitor pair Z007 and E57 was further compared using a neurite outgrowth assay (Merck, #NS220) with mouse neuroblastoma cell line N1E-115. Laminin-coated Millicell® 12-well inserts were placed in a 12 well plate containing 1.2 mL differentiation medium (Merck, NS002). Then, 300 μL of a 10^6 N1E-115-cells/mL suspension were added. Differentiation medium contained 0 μM, 75 μM and 150 μM Nocadazole as positive controls, and 100 μM, 250 μM and 500 μM of inhibitors 2007 or E57. Nocodazole interferes with the polymerization of microtubules resulting in an antineoplastic effect.
For neurite extension the plates were incubated at 37° C. for 48 hours. Then the insert was transferred to a new 12 well plate with 1,200 μL of PBS per plate and finally to a plate with 400 μL of −20° C. methanol per well, where the cells were fixed for 20 min at room temperature. After rinsing with PBS, the insert was stained with Neurite Staining Solution for 20 min. After rinsing the inserts in PBS cell bodies were carefully swabbed off and inserts were washed again in PBS. Inserts were then transferred into 15 mL tubes and 100 μL Neurite Stain Extraction Buffer were added to the top of the inserts. After 5 min incubation at ambient temperature, tubes were centrifuged for 1 min at 1,200 rpm. Finally 75 μL extraction buffer were removed and the absorbance was determined at 590 nm.

IC50 [1]: 230 nM
SMILES: CCC(CC)CNC(=O)Cn1cccc(NC(=O)[C@H](CCC(=O)C(=O)NC)NC(=O)OCc2ccccc2)c1=O
Cytotoxicity concentration (>10% deviation from negative control), BrdU, Caco2 [2]: >1 mM
Cytotoxicity concentration (>10% deviation from negative control), BrdU, Huh-7 [3]: >1 mM
Cytotoxicity concentration (>10% deviation from negative control), EZ4U, Caoo2 [4]: >1 mM
Cytotoxicity concentration (>10% deviation from negative control), EZ4U, Huh-7 [5]: >1 mM
reduction of neurite outgrowth ([6]; N1E-115, 500 μM, 48 hours): 18%
neurite outgrowth, dose dependence ([6]; N1E-115, 100, 250 and 500 μM): dose dependent, but even milder impact
